Test: in vitro
Settings: human

SMILES: COc1ccc(C[C@H]2NC[C@H](O)[C@H]2OC(C)=O)cc1 [(-)-Anisomycin]
- CC50 at 7 days: 250 ± 130 nM
- selectivity ratio at 7 days: 13
